# Experimental data as given in article PMC7253625, “A Telomerase-Derived Peptide Exerts an Anti-Hepatitis B Virus Effect via Mitochondrial DNA Stress-Dependent Type I Interferon Production” (Frontiers in Immunology, 2020).
# How the values were obtained:
# HBV [1] = test: Anti-HBV effect in HepG2 cells transiently transfected with 1.2x genotype C2 HBV genome plasmid (HBsAg ELISA, extracellular virion DNA qPCR); format: cell-based, hepatitis B virus; settings: 10 μM, treatment for 2 days
# Protocol: For the analysis of the anti-HBV effect of GV1001, HepG2, Huh-7, or HepG2-2.15 cells were treated with PBS, entecavir, lamivudine, or GV1001 and incubated for 24 or 48 h. The supernatants were collected, and HBsAg and HBeAg ELISAs were conducted using a commercial Bioelisa HBsAg color ELISA Kit (BIOKIT, Barcelona, Spain) and a HBeAg ELISA kit (AccuDiag^TM, […], INC., Woodland Hills, CA, United States), respectively, according to the manufacturer’s procedures. Cell pellets were harvested and subjected to RNA extraction for RT-qPCR to determine the viral amount.
# For evaluating the HBV viral titers, HBV genomes from cell culture supernatants and pellets were purified using the QIAamp Blood DNA extraction kit (QIAGEN, Hilden, Germany) and quantitated by qPCR using a primer pair specific to the small S gene (SF: 5′-[…]-3′) and antisense primer SR (positions 309–328, 5′-[…]-3′). The HBV DNA plasma standard containing 1 × 10^6 HBV genomic DNA copies/ml (HBV DNA Quantiplex, Chiron) was used to standardize the viral titers. The following primer sets were used to investigate the mRNA expression levels with RT-qPCR: 18S-F: 5′-[…]-3′ and 18S-R: 5′-[…]-3′, HO-1-F: 5′-TTG […]-3′, and HO-1-R: 5′-TCAGCAG CTCCTGCAACTCC-3′, IFNb-F: 5′-[…] […]
# HBV [2] = test: Anti-HBV effect in Huh-7 cells transiently transfected with 1.2x genotype C2 HBV genome plasmid (HBsAg ELISA, extracellular virion DNA qPCR); format: cell-based, hepatitis B virus; settings: transfected Huh-7 cells, 10 μM, treatment for 2 days
# Protocol: (§1) For the analysis of the anti-HBV effect of GV1001, HepG2, Huh-7, or HepG2-2.15 cells were treated with PBS, entecavir, lamivudine, or GV1001 and incubated for 24 or 48 h. The supernatants were collected, and HBsAg and HBeAg ELISAs were conducted using a commercial Bioelisa HBsAg color ELISA Kit (BIOKIT, Barcelona, Spain) and a HBeAg ELISA kit (AccuDiag^TM, DIAGNOSTIC AUTOMATION, INC., Woodland Hills, CA, United States), respectively, according to the manufacturer’s procedures. Cell pellets were harvested and subjected to RNA extraction for RT-qPCR to determine the viral amount.
# (§2) For evaluating the HBV viral titers, HBV genomes from cell culture supernatants and pellets were purified using the QIAamp Blood DNA extraction kit (QIAGEN, Hilden, Germany) and quantitated by qPCR using a primer pair specific to the small S gene (SF: 5′-TTGACAAGAATCCTCACAATACC-3′) and antisense primer SR (positions 309–328, 5′-GGAGGTTGGGGACTGCGAAT-3′). The HBV DNA plasma standard containing 1 × 10^6 HBV genomic DNA copies/ml (HBV DNA Quantiplex, Chiron) was used to standardize the viral titers. […]
# HBV [3] = test: Anti-HBV effect in stable HepG2-2.15 cells (extracellular virion qPCR, HBeAg ELISA); format: cell-based, hepatitis B virus; settings: 48 h, dose-dependent
# Protocol: as §1, §2
# HepG2 cells = format: cell-based, human
# Protocol: (§3) HepG2 and Huh-7 cells were seeded (1 × 10^4 cells) in 96-well microplates and incubated with increasing concentrations of GV1001 for 3 days. Cell viability was determined using the MTT assay kit (Promega, Fitchburg, WI, United States). For analysis of the cytotoxicity of GV1001 and entecavir, CytoTox 96 Non-Radioactive Cytotoxicity Assays (G1780, Promega, Fitchburg, WI, United States) of the collected supernatant were performed according to the manufacturer’s protocol.
# Huh-7 cells = format: cell-based, human
# Protocol: as §3
# HepG2-2.15 cells = test: Lactate dehydrogenase cytotoxicity assay, HepG2-2.15; format: cell-based, human; settings: supernatant
# Protocol: as §3
# HBV pgRNA = HBV pgRNA assay (RT-qPCR); format: cell-based, hepatitis B virus; settings: HepG2 cells transfected with linearized 1.2x genotype C2 HBV plasmid; GV1001 10 μM, ETV 30 nM
# Protocol: Total RNA from cell pellets was extracted using TRIzol reagent (Invitrogen, Carlsbad, CA, United States) according to the provided protocol. The RNA samples were incubated with RQ1 DNase (Promega, United Kingdom) for 60 min at 37°C, mixed with 1 μl of stop solution, incubated at 65°C for 10 min to inactivate the DNase, and stored at −80°C until use. For detection of viral pgRNA, 2 μg of RNA was reverse-transcribed and amplified by the Reverse Transcription System (Promega, United Kingdom). Next, 2 μl of each cDNA was quantified by RT-qPCR analysis, and the 18S rRNA gene was used to normalize the RNA samples.
# HBV cccDNA = HBV cccDNA assay (RT-qPCR); format: cell-based, hepatitis B virus; settings: HepG2 cells transfected with linearized 1.2x genotype C2 HBV plasmid; GV1001 10 μM, ETV 30 nM
# Protocol: HepG2 cells transiently transfected with a linearized 1.2x genotype C2 HBV plasmid were collected and incubated in lysis buffer A (10 mM Tris–HCl, pH 7.4, 1 mM EDTA, 50 mM NaCl, and 1% NP-40) for 10 min at 4°C. The lysates were centrifuged for 5 min at 14,000 rpm, and the nuclear pellet in lysis buffer B (10 mM Tris–HCL, 10 mM EDTA, 150 mM NaCl, 0.5% SDS) was sonicated at three to four pulses of 60% power and incubated overnight at 37°C after treatment with 0.5 mg/ml proteinase K. After the lysates were extracted with phenol–chloroform (1:1) and precipitated with ethanol, 1 μg DNA was treated with 10 U of PSAD (Plasmid safe DNase I, Epicenter, PA, United States) for 45 min at 37°C. The reaction was stopped by incubating for 30 min at 70°C. RT-qPCR was performed, and the 18S rRNA was used for normalization.
# HBV nucleocapsid = HBV nucleocapsid formation, Western blot on native gels; format: cell-based, hepatitis B virus; settings: transfected HepG2 cells; GV1001 1 nM–10 μM; native gel Western blot
# Protocol: (§4) The harvested cells were lysed using RIPA buffer (CST, #9806) containing protease inhibitor and phosphate inhibitor (Hoffmann-La Roche Inc.) and incubated for 20 min on ice. The lysed cells were centrifuged for 30 min at 13,000 rpm, and the lysates were collected for Western blotting. A Bradford assay was performed for protein quantification. Then, 5X loading buffer and PBS were added for protein quantification, and the samples were boiled for 5 min and chilled on ice. Protein samples were separated by electrophoresis, transferred to NC membranes, and blocked for 1 h with 5% skim milk or bovine serum albumin. The membranes were incubated overnight at 4°C with primary antibodies (1:1,000). On the next day, the membranes were washed with 0.1% Tween-20 in Tris–buffered saline and incubated in HRP secondary antibodies (1:2,000) for 2 h. After ECL solution was applied to the membrane, proteins were detected on an imager (LAS 2000).
# HBV [4] = test: Anti-HBV effect in HBV transgenic mice (serum HBsAg ELISA, serum HBV DNA qPCR); format: in vivo
# Protocol: Transgenic (TG) mice were generated by transferring the pHY92-1.1x-HBV-full genome plasmid (genotype A2) into C57B1/6N mice, and the TG mice used in this study constitutively express the HBV genome with the W4P mutation in the preS1 region ([19]). The age-matched TG mice were injected with GV1001 (50 μg/kg) and LMV (500 μg/kg) twice per week. Serum was collected from the orbital sinus of the mice at 4 and at 8 weeks. All animal experiments were approved by the Institutional Animal Care and Use Committee of the Seoul National University College of Medicine (SNU-170308).
# (§5) For evaluating the HBV viral titers, HBV genomes from cell culture supernatants and pellets were purified using the QIAamp Blood DNA extraction kit (QIAGEN, Hilden, Germany) and quantitated by qPCR using a primer pair specific to the small S gene (SF: 5′-TTGACAAGAATCCTCACAATACC-3′) and antisense primer SR (positions 309–328, 5′-GGAGGTTGGGGACTGCGAAT-3′). The HBV DNA plasma standard containing 1 × 10^6 HBV genomic DNA copies/ml (HBV DNA Quantiplex, Chiron) was used to standardize the viral titers. The following primer sets were used to investigate the mRNA expression levels with RT-qPCR: 18S-F: 5′-[…]-3′ and 18S-R: 5′-CGATCCGAGGGCCTCACTA-3′, HO-1-F: 5′-TTG CCAGTGCCACCAAGTTC-3′, and HO-1-R: 5′-TCAGCAG CTCCTGCAACTCC-3′, IFNb-F: 5′-TTGTGCTTCTCCACTA CAGC-3′ and hIFNb-R: 5′-[…]-3′, mtDNA1-F: 5′[…]-3′ and mtDNA1-R: 5′-[…]-3′, mtDNA2-F: 5′-[…]-3′ and mtDNA2-R: 5′-AA AGTGCATACCGCC7AAAAG-3′, mtDNA3-F: 5′-TCCAACT CATGAGACCCACA-3′ and mtDNA3-R: 5′-TGAGGCT TGGATTAGCGTTT-3′).
# type I IFN = test: Type I IFN bioassay (ISRE luciferase reporter cells); format: cell-based, human; settings: supernatant of treated cells added to ISRE-luciferase reporter cells for 6 h
# Protocol: For the indirect measurement of IFN levels using luciferase reporter genes, hMH55-293-ISRE cells integrating IFN-sensitive response elements (ISREs) associated with the luciferase reporter gene at the 3′ end were established using 5 μg of puromycin (Sigma-Aldrich, St. Louis, MO, United States). After the supernatant was collected from the cells treated with each reagent for 24 or 48 h, it was added to the hMH55-293-ISRE cells for 6 h. After incubation, the cells were washed with PBS and lysed by Reporter Lysis Buffer (E1500, Promega, Fitchburg, WI, United States) for 30 min at RT. Then, the luciferase assay reagent (E1500, Promega, Fitchburg, WI, United States) was added, and the luminescence was measured using a TECAN m200 reader (TECAN, Switzerland). For the neutralization assay, the HepG2-2.15 cells were seeded into six-well plates for 12 h. On the next day, the cells were pre-incubated with anti-IFNAR2 and anti-GAPDH antibodies for 2 h at RT on the rotator. After the cells were washed with PBS, they were treated with PBS (0.5%) or GV1001 (5 or 10 μM) for 12 h.
# cytosolic mtDNA = test: Cytosolic mtDNA level, RT-qPCR; format: cell-based, human; settings: HepG2-2.15 cells; GV1001 for 48 h; mtDNA1, mtDNA2, mtDNA3 regions
# From the text: as §5
# 8-OHdG = 8-OHdG ELISA; format: cell-based, human; settings: genomic DNA of HepG2-2.15 cells; GV1001 5 or 10 μM for 12 h
# Protocol: After the HepG2-2.15 cells were seeded into six-well plates for 12 h, they were treated with PBS (0.5%) or GV1001 (5 or 10 μM) for 12 h. From the pellets, genomic DNA was extracted using a QIAamp Blood DNA extraction kit (QIAGEN, Hilden, Germany). For the detection of 8-hydroxy-2′-deoxyguanosine (8-OHdG) activity, competitive ELISAs from an 8-OHdG analysis kit (OxiSelect Oxidative DNA Damage ELISA kit, Cell Biolabs, San Diego, CA, United States) was used according to the manufacturer’s protocol.
# heme oxygenase-1 (HO-1) = test: HO-1 protein expression, Western blot; format: cell-based, human; settings: 1.2x-WT plasmid-transfected HepG2 cells
# Protocol: as §4
smiles,measurement,setting,value
CC[C@H](C)[C@H](NC(=O)[C@H](Cc1ccccc1)NC(=O)[C@H](CCCNC(=N)N)NC(=O)[C@H](CC(C)C)NC(=O)[C@H](CCCNC(=N)N)NC(=O)[C@H](CO)NC(=O)[C@@H](NC(=O)[C@H](CC(C)C)NC(=O)[C@H](CC(C)C)NC(=O)[C@H](C)NC(=O)[C@@H]1CCCN1C(=O)[C@H](CCCNC(=N)N)NC(=O)[C@H](C)NC(=O)[C@@H](N)CCC(=O)O)[C@@H](C)O)C(=O)N1CCC[C@H]1C(=O)N[C@@H](CCCCN)C(=O)O [GV1001],HBsAg level vs PBS,HBV [1]; ELISA,decreased
same,extracellular HBV virion level vs PBS,HBV [1]; qPCR,decreased
same,HBsAg level vs PBS,HBV [2]; ELISA,decreased
same,extracellular HBV virion level vs PBS,HBV [2]; qPCR,decreased
same,HBeAg level,"HBV [3]; ELISA, reduction not definite compared with virion",reduced
same,extracellular HBV virion level,HBV [3]; qPCR,reduced
same,cytotoxicity (LDH assay),HepG2 cells,cytotoxicity was not observed
same,cytotoxicity (MTS cell viability),HepG2 cells,No cytotoxicity was observed
same,cytotoxicity (MTS cell viability),Huh-7 cells,No cytotoxicity was observed
same,cytotoxicity (LDH assay),HepG2-2.15 cells,cytotoxicity was not observed
same,pgRNA transcript level vs PBS,HBV pgRNA,significantly reduced
same,cccDNA level vs PBS,HBV cccDNA,significantly reduced
same,virion nucleocapsid levels,HBV nucleocapsid,reduced the virion nucleocapsid levels in a dose-dependent manner
same,"serum HBsAg level vs PBS, 4 weeks","HBV [4]; 50 μg/kg intravenously twice per week, after 4 weeks",did not significantly reduce
same,"serum extracellular virion level vs PBS, 4 weeks","HBV [4]; 50 μg/kg intravenously twice per week, after 4 weeks, qPCR",did not significantly reduce
same,"serum virions vs PBS, 8 weeks","HBV [4]; 50 μg/kg intravenously twice per week, after 8 weeks, qPCR",significant reduction
same,mean HBsAg reduction compared to PBS,"HBV [4]; GV1001 50 μg/kg intravenously twice per week, serum ELISA",20%
same,secreted IFN-I level (luciferase luminescence),type I IFN,significantly increased in a dose-dependent manner
same,cytosolic mtDNA levels,cytosolic mtDNA,significantly enhanced
same,8-OHdG level,8-OHdG,significantly elevated in a dose-dependent manner
same,HO-1 expression,heme oxygenase-1 (HO-1),enhanced HO-1 expression in a dose-dependent manner
